Experimental findings from publication PMC6405930, “Conservation of the Amyloid Interactome Across Diverse Fibrillar Structures” (Scientific Reports, 2019) are described below.

By UniProt entry, the sequences of proteins in these tests, tags left out. Residues count along the entry.
UniProt P01009, 383-418 limits assumed: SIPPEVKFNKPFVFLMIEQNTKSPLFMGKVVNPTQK
UniProt P01275, 53-81 limits assumed: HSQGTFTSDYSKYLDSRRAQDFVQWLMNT

The target in data set [1] is T1, αSN fibrils (Homo sapiens, UniProt P37840). Put plainly: Fibril incubation with CSF, quantitative MS/MS of bound proteins. It is filed as binding. Conditions: 4:1 w/w CSF protein:fibril. The method, then:
(§1) Plasma and CSF solutions were centrifuged (40,000 g, 20 min) to remove any aggregates. The protein concentration was determined using 280 nm absorbance assuming 1 Abs = 1 mg/mL. […] Control samples (without fibril material) were prepared similarly. All samples were incubated at room temperature for one hour under gentle agitation. Fibrils and fibril-bound proteins were pelleted by centrifugation at 17,000 g for 30 minutes. The supernatant (175 μL) was removed and the aggregate was re-suspended in 175 μL PBS and pelleted again before further preparation for gel analysis and spin-filter assisted digest for quantitative MS/MS. […]
(§2) The micro-purified tryptic peptides were dissolved in 0.1% formic acid, injected and trapped on an in-house packed trap column (2 cm × 100 μm I.D) with RP ReproSil-Pur C18-AQ 3 μm resin (Dr. Maisch GmbH). […] Elution from the analytical column was performed with a linear gradient from 5% to 35% phase B (90% acetonitrile with 0.1% formic acid) over 20 min for protein identification and 50 min for quantitative analysis, respectively.
(§3) All samples were analysed three times, yielding nine MS/MS experiments for each fibril for both plasma and CSF. […]
(§4) XIC quantification was based on the average ion intensity of the three most abundant peptides for each protein. Only proteins quantified in at least four out of nine MS/MS experiments per fibril were included in the quantification. […]

The next data set relates to T2, FAS4-AD aggregates.
T2 construct: aggregates of a mutated version of the FAS1-4 domain of TGFBIp
The data set can be described thus: Fibril incubation with plasma, quantitative MS/MS of bound proteins. Details: key: *: Identified, but not quantified; —: Not identified in any of the samples. It is filed as binding, human. Conditions: symbol cells. The method, then:
as §1, §2, §3, §4

A further data set has as its system T3, Ab2 fibrils.
T3 construct: Two structurally distinct fibrils of the Aβ(1–40) peptide associated with AD
The data set is described as above. The settings on record: 50:1 w/w plasma protein:fibril. It is filed as binding, human. As to the method: as §1, §2, §3, §4

A further data set has as its system T4, Ab1 fibrils.
T4 construct: Synthetic amyloid β peptide 1–40 was purchased from Caslo Aps (Lyngby, Denmark); purchased Caslo Aps (Lyngby, Denmark); host or cells: synthetic peptide
The description is as above. The format is binding, human. The settings on record: 50:1 w/w plasma protein:fibril. The method, then: (§5) Plasma and CSF solutions were centrifuged (40,000 g, 20 min) to remove any aggregates. The protein concentration was determined using 280 nm absorbance assuming 1 Abs = 1 mg/mL. […] Control samples (without fibril material) were prepared similarly. All samples were incubated at room temperature for one hour under gentle agitation. Fibrils and fibril-bound proteins were pelleted by centrifugation at 17,000 g for 30 minutes. The supernatant (175 μL) was removed and the aggregate was re-suspended in 175 μL PBS and pelleted again before further preparation for gel analysis and spin-filter assisted digest for quantitative MS/MS. […]
as §2, §3

Another data set addresses T5, C-36 fibrils (Homo sapiens, UniProt P01009).
T5 construct: the 36 residue C-terminal fragment of α1-antitrypsin (C-36)
The description is as above. The format is binding. The settings on record: 50:1 w/w plasma protein:fibril. The method, then: as §1, §2, §3, §4

The target in data set [2] is T1, αSN fibrils. The data set is described as above. It is filed as binding. The settings on record: 50:1 w/w plasma protein:fibril. As to the method: as §1, §2, §3, §4
For the next data set, the target named is T6, glucagon fibrils (Homo sapiens, UniProt P01275).
T6 construct: fibrils of the peptide hormone glucagon
Described as above. The format is binding. Conditions: 50:1 w/w plasma protein:fibril. As to the method:
as §1, §2, §3, §4

Data set [3] has as its system fibril systems (Ab1, Ab2, glucagon, αSN and C-36). The data set can be described thus: Fibril incubation with CSF, quantitative MS/MS, span over the fibril systems. It is filed as binding, human. As to the method: as §5, §2, §3

As for “Apolipoprotein E: plasma/CSF protein bound to fibrils”, the “Relative composition of CSF proteins bound: αSN” value in the data set with αSN fibrils [1] is on record as 11.0 ± 3.0 % of total protein.
With “Coagulation factor X: plasma protein bound to fibrils”, the “Identification status of plasma protein bound: FAS4-AD” value in the data set on FAS4-AD aggregates is recorded as “*”. Besides, the “Relative composition of plasma proteins bound: Ab2” value in the data set with Ab2 fibrils was 0.5 ± 0.1 % of total protein. Moreover, the “Relative composition of plasma proteins bound: Ab1” value in the data set on Ab1 fibrils is recorded as 0.4 ± 0.0 % of total protein. Also, in the data set with C-36 fibrils, the “Relative composition of plasma proteins bound: C-36” value was 0.2 ± 0.1 % of total protein. Besides, in the data set with αSN fibrils [2], the “Relative composition of plasma proteins bound: αSN” value was 0.9 ± 0.5 % of total protein. Also, the “Relative composition of plasma proteins bound: Glucagon” value with glucagon fibrils is recorded as 0.6 ± 0.0 % of total protein.
As for “Serum albumin: plasma/CSF protein bound to fibrils”, the “contribution to the fibril interactomes” value in data set [3] is given as 27.8–69.7%.
